Target: CB1 receptors (Macaca mulatta, UniProt Q71SP5)
Experiment: Monkey brain PET with 11C-SD5024, baseline and rimonabant pre-blocked scans
Details: receptor saturating dose of rimonabant 3 mg/kg i.v.

Amino acid sequences for entries named in this document (tags omitted).
UniProt Q71SP5, whole entry: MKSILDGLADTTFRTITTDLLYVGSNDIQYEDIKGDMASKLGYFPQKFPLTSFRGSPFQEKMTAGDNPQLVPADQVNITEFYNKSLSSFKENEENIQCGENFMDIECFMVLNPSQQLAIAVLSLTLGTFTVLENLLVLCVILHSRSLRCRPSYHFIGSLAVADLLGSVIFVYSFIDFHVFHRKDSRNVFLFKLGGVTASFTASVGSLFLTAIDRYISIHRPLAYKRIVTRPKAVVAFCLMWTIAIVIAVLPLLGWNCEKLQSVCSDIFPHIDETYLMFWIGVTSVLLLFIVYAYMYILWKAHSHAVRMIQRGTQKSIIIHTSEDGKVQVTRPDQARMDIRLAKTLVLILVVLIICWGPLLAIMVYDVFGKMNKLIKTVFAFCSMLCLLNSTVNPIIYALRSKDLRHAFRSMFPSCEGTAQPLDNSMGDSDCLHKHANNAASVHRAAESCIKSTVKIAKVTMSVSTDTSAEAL

brain uptake of 11C-SD5024 after rimonabant: markedly reduced
Compound: Cc1c(C(=O)NN2CCCCC2)nn(-c2ccc(Cl)cc2Cl)c1-c1ccc(Cl)cc1 [rimonabant, reference compound]

From publication PMC3849221 (NeuroImage, 2013)
